# Structures can show the parent of a compound that is named as a salt.
# Assays:
# Glucocorticoid = Glucocorticoid (Homo sapiens, UniProt P04150); assay: LeadProfilingScreen: Glucocorticoid; type: binding
# [1] = biological target: Serotonin (5-Hydroxytryptamine) 5-HT1A (Homo sapiens, UniProt P08908); assay: LeadProfilingScreen: Serotonin 5-HT1A; type: binding
# ICR mice = assay: Acute single-dose toxicity study; type: in vivo; settings: for survival / survival rate: saline
# Protocol: An acute single-dose toxicity study was conducted in male ICR mice. 7-week-old ICR male mice were intravenous bolus administered with CN016 dissolved in 0.9% sodium chloride solution by using dose escalation procedure to approach the toxicity of CN016. The treatment groups included 50, 100, 300, and 500 mg/kg dose levels and three to six mice for each group. The injection volume was calculated based on the individual body weight. […] Animal body weight was measured once daily during the 14 day observation period of the study. All animals were euthanized with 100% CO2 at the end of the study.
# [2] = system: proinflammatory cytokines and chemokines; assay: Systemic mouse cytokine and chemokine detection; type: in vivo; settings: pretreatment; day 14 after first paclitaxel injection
# Protocol: Samples were obtained from C57BL/6J female mice before and 14 days after the first course of treatment. The blood samples were obtained from the submandibular vein and then centrifuged at 3000 rpm for 15 min at 4 °C to yield plasma. Mouse cytokines/chemokines were quantified using Magnetic Bead 32-Multiplex Panel (Millipore, MCYTMAG-70K-PX32). Statistical significance was analyzed using two-way ANOVA, with p < 0.05 considered significant.
# CYP 2C9 = biological target: T1, CYP 2C9 (Homo sapiens, UniProt P11712); assay: Cytochrome P450 testing, CYP 2C9; type: in vitro ADME; settings: diclofenac 4-hydroxylation; read-out: Concentration of inhibition (IC50), CYP 2C9
# T1 construct: host or cells: baculovirus-infected insect cells (supersomes)
# Excerpt: Cytochrome P450 testing of CN016
# The effects of CN016 on the activity of six specific human liver cytochrome P450 isozymes (CYP 1A2, 2C9, 2C19, 2D6, 2E1, 3A4) expressed in baculovirus-infected insect cell supersomes were studied. The reactions used to measure the activity of these enzymes were phenacetin O-deethylation (1A2), diclofenac 4-hydroxylation (2C9), mephenytoin 4-hydroxylation (2C19), dextromethorphan O-demethylation (2D6), chlorzoxazone 6-hydroxylation (2E1) and testosterone 6-hydroxylation (3A4).
# Furafylline, sulfaphenazole, tranylcypromine, quinidine, diethyldithiocarbamate and azamulin were used as reference inhibitors of these enzymes. Incubation mixtures containing no CN016 or reference inhibitors were used as controls. The tested result […]
# Table S4. Result of Cytochrome P450 testing of CN016
# Androgen (Testosterone) = Androgen (Testosterone) (Homo sapiens, UniProt P10275); assay: LeadProfilingScreen: Androgen (Testosterone); type: binding
# sciatic nerve fibers = assay: Ultrastructure evaluation of the sciatic nerve (TEM); type: in vivo, mouse
# Excerpt: Sciatic nerves were isolated from mice after drug treatment and behavioral tests to examine the ultrastructure of nerve fibers. […] To evaluate the integrity of myelin, we calculated the G-ratio (axon perimeter/myelin perimeter) in different treatment groups. Because the symptoms of PIPN mostly manifest with sensory impairment,[28] we roughly classified nerve fibers into larger fibers (diameter > 5 μm) and small fibers (diameter < 5 μm) depending on the type of sensory information conveyed.[29] Large fibers with greater than 5 μm diameter carry information related to proprioception, touch, and pressure. In contrast, small fibers with less than 5 μm diameter carry information related to temperature and pain.
# Sciatic nerve samples from mice from each treatment group were isolated after the last time point of mouse behavioral tests. Fixation of sciatic nerves with 4% glutaraldehyde and post fixation with 1% osmium tetroxide solution at 4 °C were performed. […] Transmission electron microscopy (H7650, Hitachi) was used to observe the ultrastructure in the cross section of the sciatic nerves.
# Opiate δ1 (OP1, DOP) = Opiate δ1 (OP1, DOP) (Homo sapiens, UniProt P41143); assay: LeadProfilingScreen: Opiate δ1 (OP1, DOP); type: binding
# Potassium Channel [KATP] = Potassium Channel [KATP] (Cricetus cricetus, UniProt Q09427); assay: LeadProfilingScreen: Potassium Channel [KATP]; type: binding, hamster; settings: read-out: Inhibition (%), Potassium Channel [KATP]
# Excerpt: (§1) LeadProfilingScreen (Total # of Assays: 67)
# (§2) To evaluate, in LeadProfilingScreen, the activity of test compound CN168 (Panlabs # 1251879). […]
# (§3) Summary of Significant Results
# (§4) Biochemical assay results are presented as the percent inhibition of specific binding or activity throughout the report.
# (§5) All other results are expressed in terms of that assay's quantitation method.
# (§6) • For primary assays, only the lowest concentration with a significant response judged by the assays' criteria, is […]
# (§7) • Where applicable, either the secondary assay results with the lowest dose/concentration meeting the significance […]
# (§8) • Unless otherwise requested, primary screening in duplicate with quantitative data (e.g., IC50 ± SEM, Ki ± SEM and nH) are shown where applicable for individual requested assays. In screening packages, primary screening in duplicate with semi-quantitative data (e.g., estimated IC50, Ki and nH) are shown where applicable (concentration range of 4 log units); available secondary functional assays are carried out ([…]) and MEC or MIC determined only if active in primary assays >50% at 1 log unit below initial test concentration. […]
# Adrenergic α1B = Adrenergic α1B (Homo sapiens, UniProt P35368); assay: LeadProfilingScreen: Adrenergic α1B; type: binding
# Adrenergic β1 = Adrenergic β1 (Homo sapiens, UniProt P08588); assay: LeadProfilingScreen: Adrenergic β1; type: binding; settings: read-out: Inhibition (%), Adrenergic β1
# Excerpt: as §1, §2, §3, §4, §5, §6, §7, §8
# Transporter, GABA = Transporter, GABA (Rattus norvegicus, UniProt P23978); assay: LeadProfilingScreen: Transporter, GABA; type: binding
# Histamine H2 = Histamine H2 (Homo sapiens, UniProt P25021); assay: LeadProfilingScreen: Histamine H2; type: binding
# hERG = hERG (Homo sapiens, UniProt Q12809); assay: LeadProfilingScreen: Potassium Channel hERG; type: binding
# [3] = biological target: Serotonin (5-Hydroxytryptamine) 5-HT3 (Homo sapiens, UniProt P46098); assay: LeadProfilingScreen: Serotonin 5-HT3; type: binding
# Bradykinin B2 = Bradykinin B2 (Homo sapiens, UniProt P30411); assay: LeadProfilingScreen: Bradykinin B2; type: binding
compound,measurement,setting,value
"O=P(O)(O)CCN1CCC(Nc2cc(N3CCOCC3)nc(NCc3cn(CCCO)nn3)n2)CC1 [CN016, {2-[4-(2-{[1-(3-Hydroxy-propyl)-1H-[1,2,3]triazol-4-ylmethyl]-amino}-6-morpholin-4-yl-pyrimidin-4-ylamino)-piperidin-1-yl]-ethyl}-phosphonic Acid Hydrobromide Salt]",inhibition at 10 µM,Glucocorticoid,14%
same,inhibition at 10 µM,[1],2%
same,survival,ICR mice; 50 mg/kg IV,3/3
same,survival rate,ICR mice; 50 mg/kg IV,100%
same,survival,ICR mice; 100 mg/kg IV,6/6
same,survival rate,ICR mice; 100 mg/kg IV,100%
same,survival,ICR mice; 300 mg/kg IV,3/3
same,survival rate,ICR mice; 300 mg/kg IV,100%
same,survival,ICR mice; 500 mg/kg IV,3/3
same,survival rate,ICR mice; 500 mg/kg IV,100%
same,maximum tolerance dose (MTD),"ICR mice; intravenous, ICR mice",> 500 mg/kg
same,proinflammatory cytokines and chemokines in plasma,[2],significant decrease
same,IC50,CYP 2C9,> 100 µM
same,inhibition at 10 µM,Androgen (Testosterone),6%
same,myelinated fiber density of sciatic nerve (restoration of fiber loss),"sciatic nerve fibers; dose-dependent, particularly at 20 mg/kg",significantly restored
same,integrity of large fibers (diameter > 5 μm) of sciatic nerve,"sciatic nerve fibers; paclitaxel with pretreated CN016 5, 10 and 20 mg/kg",did not affect the integrity of large fibers
same,G-ratio in small fibers (diameter < 5 μm) of sciatic nerve,"sciatic nerve fibers; pretreated, particularly at 10 or 20 mg/kg, paclitaxel-treated mice",could rescue the observed axonal damage
same,proportion of atypical mitochondria in sciatic nerve,"sciatic nerve fibers; pretreatment, paclitaxel-treated mice",significantly decreased
same,inhibition at 10 µM,"Opiate δ1 (OP1, DOP)",6%
same,inhibition at 10 µM,Potassium Channel [KATP],-1%
same,inhibition at 10 µM,Adrenergic α1B,14%
same,inhibition at 10 µM,Adrenergic β1,4%
same,inhibition at 10 µM,"Transporter, GABA",2%
same,inhibition at 10 µM,Histamine H2,0%
same,inhibition at 10 µM,hERG,-3%
same,inhibition at 10 µM,[3],-1%
same,inhibition at 10 µM,Bradykinin B2,-4%

# Source: PMC8958505, “Discovery of Potential Neuroprotective Agents against Paclitaxel-Induced Peripheral Neuropathy” (Journal of Medicinal Chemistry, 2022)
